Data published in PMC4786692.

Chains of the proteins cited; added tags and fusions are not shown. A line that says so, or that is headed by a name, gives the form on record, which may keep a tag or linker. Residues count along the entry.
UniProt P02745, 23-245: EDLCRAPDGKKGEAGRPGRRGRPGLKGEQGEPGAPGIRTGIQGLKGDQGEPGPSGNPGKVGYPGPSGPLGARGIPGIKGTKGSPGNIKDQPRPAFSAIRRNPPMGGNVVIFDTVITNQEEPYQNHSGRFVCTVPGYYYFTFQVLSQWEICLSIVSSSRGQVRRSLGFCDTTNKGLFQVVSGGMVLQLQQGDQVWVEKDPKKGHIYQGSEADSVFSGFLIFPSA
Human C1q, UniProt P02746, 28-253: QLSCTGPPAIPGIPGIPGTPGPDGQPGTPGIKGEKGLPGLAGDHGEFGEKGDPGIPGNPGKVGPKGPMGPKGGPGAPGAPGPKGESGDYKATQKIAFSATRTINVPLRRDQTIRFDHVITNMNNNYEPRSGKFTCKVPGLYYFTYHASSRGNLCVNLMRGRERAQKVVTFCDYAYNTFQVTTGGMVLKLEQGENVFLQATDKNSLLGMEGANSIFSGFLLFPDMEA
Human C1q, UniProt P02747, 29-245: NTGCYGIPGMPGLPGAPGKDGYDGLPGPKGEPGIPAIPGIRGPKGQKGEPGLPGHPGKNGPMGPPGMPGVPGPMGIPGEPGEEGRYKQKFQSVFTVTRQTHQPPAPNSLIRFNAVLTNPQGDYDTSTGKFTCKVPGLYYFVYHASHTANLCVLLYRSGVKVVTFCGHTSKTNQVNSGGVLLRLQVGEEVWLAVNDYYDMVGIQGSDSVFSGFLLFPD
VEGF dual dAb (human), light, as listed by the source, chain 2 of 2: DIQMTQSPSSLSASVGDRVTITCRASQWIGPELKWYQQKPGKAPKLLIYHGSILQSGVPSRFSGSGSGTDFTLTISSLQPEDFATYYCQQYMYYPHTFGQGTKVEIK
VEGF dual dAb (human), heavy, as listed by the source, chain 1 of 2: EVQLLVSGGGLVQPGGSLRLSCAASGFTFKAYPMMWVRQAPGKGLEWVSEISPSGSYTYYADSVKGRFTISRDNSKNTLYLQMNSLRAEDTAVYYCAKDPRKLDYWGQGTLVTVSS

Target: VEGF dual dAb (human)
Experiment: SPR; ProteOn GLM chip; VEGF dual dAb alone or in complex with VEGF-165 immobilised by amine coupling; C1q injected at 1-256 nM; 25 °C, HBS-N + 10 mM CaCl2; equilibrium model

- Kd: 7.51 nM
Substance: Human C1q (from UniProt P02745 23-245; P02746 28-253; P02747 29-245) (complex)
